According to PMC8910432 (International Journal of Molecular Sciences, 2022):

Biological target: SARS-CoV-2 3CLpro (Severe acute respiratory syndrome coronavirus 2, UniProt P0DTD1)

O=C(OC[C@H]1OC(OC(=O)c2cc(O)c(O)c(OC(=O)c3cc(O)c(O)c(O)c3)c2)[C@H](OC(=O)c2cc(O)c(O)c(OC(=O)c3cc(O)c(O)c(O)c3)c2)[C@@H](OC(=O)c2cc(O)c(O)c(OC(=O)c3cc(O)c(O)c(O)c3)c2)[C@@H]1OC(=O)c1cc(O)c(O)c(OC(=O)c2cc(O)c(O)c(O)c2)c1)c1cc(O)c(O)c(OC(=O)c2cc(O)c(O)c(O)c2)c1 (stereo partly drawn) [TA, 1,2,3,4,6-penta-O-{3,4-dihydroxy-5-((3,4,5-trihydroxybenzoyl)oxy)benzoyl}-D-glucopyranose]
concentration from which inhibitory effect on 3CLpro activity is significant: ≥ 0.1 µM
